In US9029127B2, “Method of degrading TBP using a photosynthetic bacterial strain” (priority 2003, dated 2015):
Values joined by “and” are separate entries in the source; they are usually repeats but may differ in a detail not shown here. Equal values may be shown once.

Assays:
[1] = test system: Rp. palustris CGA009 (ATCC BAA-98); experiment: TBP degradation by Rp. palustris CGA009 cultures (residual TBP by HPLC); details: 2 mM TBP
[2] = test system: Rp. palustris CGA009 (ATCC BAA-98); experiment: Growth of Rp. palustris CGA009 in the presence of TBP (OD660)
[3] = cited from earlier work
Rp. palustris ΔpRpa1 = experiment: Growth and TBP degradation of the plasmid-free Rp. palustris strain; type: cell-based, Rhodopseudomonas palustris; details: plasmid-free strain compared with the wild-type strain
[4] = test system: proteins extracted from Rp. palustris CGA009; experiment: TBP degradation by cell extracts and protein fractions (enzyme assays); type: biochemical, Rhodopseudomonas palustris; details: crude cell extract, 40° C., Michaelis-Menten fit

CCCCOP(=O)(OCCCC)OCCCC
amplitude of TBP degradation (monophasic) ([1]; aerobiosis): 28%
initial TBP consumption rate ([1]; aerobiosis): 13 µmol/L/h
amplitude of TBP degradation, first exponential ([1]; microanaerobiosis): 23%
amplitude of TBP degradation, second exponential ([1]; microanaerobiosis): 77%
initial TBP consumption rate ([1]; microanaerobiosis): 15 µmol/L/h
inhibition of bacterial growth ([2]; TBP concentrations of the order of 0.1 to 2 mM): no inhibition of bacterial growth
growth of the strain in the presence of TBP ([2]; strict anaerobiosis, 2 mM TBP): no growth is observed
theoretical maximum solubility of TBP in water ([3]; 25° C.): 1000 mg per liter
solubility of TBP in water [3]: approximately 2.5 mM
growth in a medium containing TBP (Rp. palustris ΔpRpa1): grows in a medium containing TBP, like the wild-type strain
Kmap (apparent TBP concentration for half the maximum activity) [4]: 2.6 ± 0.4 mM and 2.6 mM
Vmap (apparent maximum rate) [4]: 0.48 ± 0.04 mM/h and 0.48 mM/h
